Tests used:
[1] = tested on: LOR; experiment: qPCR gene expression assay in differentiated primary keratinocytes; conditions: primary keratinocytes differentiated 72hrs with 1.2mM Ca2+; treated 24hrs; test compound 10µm; relative to housekeeper genes
Procedure: (§1) Barrier function and development are keys to proper skin function and health. A comparative series of gene assays were performed on barrier function related genes to show the performance of compounds of general formula (I) according to the present invention.
(§2) Primary keratinocytes from 5 donors were pooled and plated at 100,000 cells/well in 6 well plates. Cells were grown in KGM-Gold (Lonza) at 37°C, 5% CO2 and then differentiated for 72hrs via the addition of 1.2mM Ca^2+. Cells were then treated for 24hrs with fresh medium containing vehicle, or vehicle plus test compound, using a test compound concentration of 10µm. Following treatment any effect on cell viability was confirmed via an LDH assay on the culture media. The cells were washed in PBS and RNA isolated via QIAzol (QIAgen) following the manufacturer's instructions. RNA quantity and quality was measured via Nanodrop and bioanalyzer assessments ahead of qPCR assessment for the levels of specific gene products. Test genes were selected to cover various aspects of epidermal function and quantified relative to the levels of a control panel of housekeeper genes. A positive fold change (log2 FC) value indicates an increase of expression, while a negative fold change indicates a decrease in expression.

[2] = tested on: ELOVL4; experiment: as above; conditions: primary keratinocytes differentiated 72hrs with 1.2mM Ca2+; treated 24hrs; test compound 10µm; relative to housekeeper genes
Procedure: as §1, §2

[3] = tested on: FLG; experiment: as above; conditions: primary keratinocytes differentiated 72hrs with 1.2mM Ca2+; treated 24hrs; test compound 10µm; relative to housekeeper genes
Procedure: as §1, §2

[4] = tested on: CLDN1; experiment: as above; conditions: primary keratinocytes differentiated 72hrs with 1.2mM Ca2+; treated 24hrs; test compound 10µm; relative to housekeeper genes
Procedure: as §1, §2

[5] = tested on: CERS3; experiment: as above; conditions: primary keratinocytes differentiated 72hrs with 1.2mM Ca2+; treated 24hrs; test compound 10µm; relative to housekeeper genes
Procedure: as §1, §2

[6] = tested on: KLK11; experiment: as above; conditions: primary keratinocytes differentiated 72hrs with 1.2mM Ca2+; treated 24hrs; test compound 10µm; relative to housekeeper genes
Procedure: as §1, §2

[7] = tested on: ALOX12B; experiment: as above; conditions: primary keratinocytes differentiated 72hrs with 1.2mM Ca2+; treated 24hrs; test compound 10µm; relative to housekeeper genes
Procedure: as §1, §2

[8] = tested on: KRT10; experiment: as above; conditions: primary keratinocytes differentiated 72hrs with 1.2mM Ca2+; treated 24hrs; test compound 10µm; relative to housekeeper genes
Procedure: as §1, §2

[9] = tested on: TGM1; experiment: as above; conditions: primary keratinocytes differentiated 72hrs with 1.2mM Ca2+; treated 24hrs; test compound 10µm; relative to housekeeper genes
Procedure: as §1, §2

[10] = tested on: barrier function related genes; experiment: qPCR gene expression assay in differentiated primary keratinocytes, all test genes together; conditions: average over the 9 test genes, treated 24hrs, test compound 10µm
Procedure: as §1, §2

Structure (SMILES)	Test Gene LOR log2 FC [1] [log2 FC]	Test Gene ELOVL4 log2 FC [2] [log2 FC]	Test Gene FLG log2 FC [3] [log2 FC]	Test Gene CLDN1 log2 FC [4] [log2 FC]	Test Gene CERS3 log2 FC [5] [log2 FC]	Test Gene KLK11 log2 FC [6] [log2 FC]	Test Gene ALOX12B log2 FC [7] [log2 FC]	Test Gene KRT10 log2 FC [8] [log2 FC]	Test Gene TGM1 log2 FC [9] [log2 FC]	Average log2 FC [10] [log2 FC]
Nc1ccccc1C(=O)Nc1cccnc1	1.511	0.608	0.741	0.454	0.369	0.397	1.039	0.669	0.735	0.725
O=C(Nc1cccnc1)c1ccc(O)cc1	1.295	0.421	0.658	0.376	0.483	0.063	0.491	0.457	0.352	0.511
